Experimental findings from US11738082B2, “High concentration protein formulations with reduced viscosity” (Bhami's Research Laboratory, Pvt. Ltd., priority 2017, dated 2023) are described below.

One data set deals with antigen. Kind of data set: Trastuzumab-Specific Sandwich ELISA assay (antigen binding). To be noted: after storage for 90 days at 4° C.; formulated with tryptophan and nicotinic acid (acid form). On the procedure:
Samples of Trastuzumab were prepared as described above. […] (Table 34).
Background: In an ELISA, binding on a coated surface is turned into a signal by an enzyme label.

Data set [1] deals with Human Gamma Globulin (HGG), GLOBUCEL®. The experiment in a line: Viscosity of aqueous solutions of Human Gamma Globulin (Cambridge VISCOlab5000 or DV2T cone and plate viscometer).

Structures can show the parent of a compound that is named as a salt.

As for “Trastuzumab: Commercially obtained Trastuzumab, HERCEPTIN®, dialyzed against 25 mM phosphate buffer, pH 6.0”, the antigen binding entry in the data set with antigen was “did not alter”.
Consider `Cc1ncc(C[n+]2csc(CCO)c2C)c(N)n1` [Thiamine-HCl], for which the “Viscosity (cP) @ 25° C.” value in data set [1] (HGG 210 mg/mL, excipient 10 mg/mL (30 mM), 25 mM citrate buffer pH 6.0) came to 102 cP. Also, the “Viscosity, cP” value in data set [1] (HGG 220 mg/mL, excipient 10 mg/mL, citrate buffer pH 6.0, 25° C.) is given as 102 cP.
